From US20050075361A1 (priority 2002, published 2005)
Read-outs that look alike come from different tables or passages of the source. Only a part of the results on these compounds is given; other tests are left out.

System: male Sprague-Dawley rats
Settings: for Analgesic duration: IM, plantar test

Buprenorphine benzoate
Analgesic duration (dose 0.6 μM/kg): 72 h

Buprenorphine enanthate
Analgesic duration (dose 0.6 μM/kg): 72 h

Buprenorphine pivalate
Analgesic duration (dose 0.6 μM/kg): 48 h

Buprenorphine propionate
duration of analgesic action (different doses 0.6, 6, 60 μM/kg in oil, intramuscular injection): 48 to 60 h
Analgesic duration (dose 0.6 μM/kg): 48 h
Analgesic duration (dose 6 μM/kg): 54 h
Analgesic duration (dose 60 μM/kg): 54 h
